# Source: patent publication US8124349B2, “Toll-like receptor assays” (University of Massachusetts, priority 2003, dated 2012)
# By UniProt entry, the sequences of proteins in these tests, tags left out. Residues count along the entry.
# UniProt O00206, 24-839: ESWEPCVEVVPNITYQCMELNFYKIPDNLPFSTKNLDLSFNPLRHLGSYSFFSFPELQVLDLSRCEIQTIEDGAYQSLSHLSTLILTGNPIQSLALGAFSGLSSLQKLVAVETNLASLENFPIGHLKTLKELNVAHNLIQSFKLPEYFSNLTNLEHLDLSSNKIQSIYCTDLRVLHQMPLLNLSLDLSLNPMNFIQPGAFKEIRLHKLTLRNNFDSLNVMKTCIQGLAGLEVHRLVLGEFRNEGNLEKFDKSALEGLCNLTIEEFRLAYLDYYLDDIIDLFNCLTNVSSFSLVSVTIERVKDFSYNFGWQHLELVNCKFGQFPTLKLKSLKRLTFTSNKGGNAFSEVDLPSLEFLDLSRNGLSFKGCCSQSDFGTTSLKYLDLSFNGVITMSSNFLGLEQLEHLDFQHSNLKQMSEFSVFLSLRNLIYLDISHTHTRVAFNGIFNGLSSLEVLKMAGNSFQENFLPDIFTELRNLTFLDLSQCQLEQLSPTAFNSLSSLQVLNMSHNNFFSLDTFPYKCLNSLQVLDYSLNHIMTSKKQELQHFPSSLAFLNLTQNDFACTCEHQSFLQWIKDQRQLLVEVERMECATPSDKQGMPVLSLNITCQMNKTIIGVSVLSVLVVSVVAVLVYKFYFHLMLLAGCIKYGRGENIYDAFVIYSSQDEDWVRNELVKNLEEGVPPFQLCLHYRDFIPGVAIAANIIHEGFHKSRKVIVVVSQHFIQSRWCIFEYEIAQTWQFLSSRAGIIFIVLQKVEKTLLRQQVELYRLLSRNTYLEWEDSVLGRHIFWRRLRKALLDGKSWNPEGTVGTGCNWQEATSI
# UniProt Q9Y6Y9, 19-160: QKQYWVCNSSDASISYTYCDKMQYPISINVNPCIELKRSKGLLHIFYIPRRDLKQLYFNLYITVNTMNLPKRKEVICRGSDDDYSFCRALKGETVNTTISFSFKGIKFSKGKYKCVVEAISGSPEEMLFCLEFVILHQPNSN
# Experiments:
# TLR4^GFP = TLR4^GFP (Homo sapiens, UniProt O00206+Q9Y6Y9); conditions: biotinylated LPS 1 mg/ml, FIG. 9 top panel
# MD-2 = MD-2 (Homo sapiens, UniProt Q9Y6Y9); conditions: supernatants of the same cells; FIG. 9 lower panel
compound,measurement,setting,value
CCCCCC/C=C\CCCCCCCCCC(=O)N[C@H]1[C@H](OC[C@H]2O[C@H](OP(=O)(O)O)[C@H](NC(=O)CC(=O)CCCCCCCCCCC)[C@@H](OCCCCCCCCCC)[C@@H]2O)O[C@H](COC)[C@@H](OP(=O)(O)O)[C@@H]1OCC[C@@H](CCCCCCC)OC [B1287],"Competitor concentration that completely blocks the TLR4-LPS interaction, relative to LPS",TLR4^GFP,roughly 10 fold the LPS (in weight)
same,Prevention of the interaction of TLR4 and biotinylated LPS,TLR4^GFP; one hour,could efficiently prevent the interaction of TLR4 and LPS
same,Prevention of the interaction of LPS with MD-2,MD-2,could efficiently prevent the interaction of LPS with MD-2
